# Ab-14 light chain CDR variants: yeast mating affinities

From the AlphaSeq antibody data of Engelhart et al. 2022 (doi:10.1038/s41597-022-01779-4), copy in the FLAb collection.

Antigen: PDVDLGDISGINAS, a 14-residue peptide of the SARS-CoV-2 spike HR2 region.

Parent scFv Ab-14: VH joined to VL by a 15-residue (Gly4Ser)3 linker. Changes lie in the light chain CDRs alone.
VH: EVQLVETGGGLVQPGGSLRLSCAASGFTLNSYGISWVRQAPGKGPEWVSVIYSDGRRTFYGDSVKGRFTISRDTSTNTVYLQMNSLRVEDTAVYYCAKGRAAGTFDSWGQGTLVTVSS
VL: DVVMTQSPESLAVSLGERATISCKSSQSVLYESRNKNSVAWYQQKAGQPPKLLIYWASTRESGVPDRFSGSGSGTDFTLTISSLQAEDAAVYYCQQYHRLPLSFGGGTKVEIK

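The starting antibody came from a phage panning campaign against this peptide. Library AAYL50 holds single substitutions and randomly drawn double and triple substitutions in the CDRs. Affinity was read by AlphaSeq, a pooled yeast mating assay with surface-displayed partners. Mating (16 h, 30 °C) was followed by selection of diploids and sequencing of their barcodes. Read counts were normalised to the haploid input and turned into Kd by a linear fit to BCL2-family pairs of known affinity, for each replicate. The assay was run in three technical replicates.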

Substitutions are numbered in sequence along the VL above, starting at 1 (not Kabat).
Every variant below is changed at Q27 of the VL (sequential numbering).
The Kd shown is the geometric mean over detected replicates; a lower Kd is a better binder.
"nd" marks a missing value. The strain was present, yet no cells mated with the target were sequenced in any replicate, which points to weak or no binding.

The variant Q27G R99Y L100S gave 140 nM (3 of 3 replicates; controls 3 of 9). With Q27F W56V Y97C the result was 3.3 µM (2 of 3 replicates; controls 0 of 9). The variant Q27T A57I Y97S showed 710 nM (2 of 3 replicates; controls 4 of 9). With K24Q Q27S S33K the result was 940 nM (3 of 3 replicates; controls 3 of 9). For Q27N Q96W S103W, the assay gave 38 nM (3 of 3 replicates; controls 1 of 9). With Q27A L30T S58R the result was 200 nM (3 of 3 replicates; controls 6 of 9).

With Q27I H98P the result was 6.3 µM (2 of 3 replicates; controls 1 of 9). The variant Q27F S28M W56I gave nd (0 of 3 replicates; controls 3 of 9). With Q27T N35P the result was 48 nM (3 of 3 replicates; controls 2 of 9). The variant Q27H L30P S58Q gave 88 nM (1 of 3 replicates; controls 0 of 9). The variant Q27I V29Y W56E showed 270 pM (3 of 3 replicates; controls 0 of 9). For Q27Y S38M H98N, the assay gave 1.7 µM (2 of 3 replicates; controls 0 of 9).

For Q27R R34G V39K, the assay gave nd (0 of 3 replicates; controls 3 of 9). With S25G Q27S K36D the result was 14 nM (3 of 3 replicates; controls 3 of 9). With Q27W S38V W56I the result was nd (0 of 3 replicates; controls 0 of 9). The variant Q27Y H98P P101K showed nd (0 of 3 replicates; controls 2 of 9). For Q27G L30C Y97L, the assay gave 4.5 µM (1 of 3 replicates; controls 1 of 9). With Q27Y A40R R99G the result was 1.1 µM (1 of 3 replicates; controls 1 of 9).

The variant Q27S N35G T59H showed 62 nM (3 of 3 replicates; controls 2 of 9). The variant Q27F R34T N35D showed 3.1 nM (3 of 3 replicates; controls 1 of 9). With Q27W T59S the result was nd (0 of 3 replicates; controls 1 of 9). With Q27G Q96H L100G the result was nd (0 of 3 replicates; controls 0 of 9). For Q27P E32R V39K, the assay gave nd (0 of 3 replicates; controls 0 of 9). The variant K24F Q27E A57K showed 23 µM (2 of 3 replicates; controls 0 of 9).

The variant S25C Q27R T59S showed 2.6 µM (3 of 3 replicates; controls 6 of 9). The variant Q27L N37E Q96H gave 29 nM (3 of 3 replicates; controls 3 of 9). For Q27H E32T R99V, the assay gave 610 nM (2 of 3 replicates; controls 0 of 9). The variant Q27E S58P R99C gave 57 µM (1 of 3 replicates; controls 2 of 9). With Q27Y E61F L100I the result was 2.8 µM (3 of 3 replicates; controls 4 of 9). With Q27R the result was 19 nM (3 of 3 replicates; controls 0 of 9).

The variant Q27F K36N R99M gave nd (0 of 3 replicates; controls 0 of 9). The variant Q27T A57P gave nd (0 of 3 replicates; controls 1 of 9). The variant Q27H P101Y S103Q gave 61 nM (3 of 3 replicates; controls 2 of 9). With Q27Y V29E S38K the result was 35 nM (3 of 3 replicates; controls 0 of 9). The variant Q27R E61K S103R gave 240 nM (3 of 3 replicates; controls 3 of 9).

Parent in this assay: reference entry 4.4 nM, copy in this library 48 nM.
Background: pairings of library AAYL50 with three empty control strains gave a value in 18% of cases (median 15 µM, 5th percentile 970 nM). Values in that range, when seen in few replicates, are hard to tell from nonspecific mating. For each scFv, signals with the empty controls are counted beside the result.